Data on 59 compounds can be found in PubChem BioAssay AID504692 (The Scripps Research Institute Molecular Screening Center, 2011).

Protein sequences, listed by entry. Tags and fused reporters are not part of them.
UniProt P47898, whole entry, looked up: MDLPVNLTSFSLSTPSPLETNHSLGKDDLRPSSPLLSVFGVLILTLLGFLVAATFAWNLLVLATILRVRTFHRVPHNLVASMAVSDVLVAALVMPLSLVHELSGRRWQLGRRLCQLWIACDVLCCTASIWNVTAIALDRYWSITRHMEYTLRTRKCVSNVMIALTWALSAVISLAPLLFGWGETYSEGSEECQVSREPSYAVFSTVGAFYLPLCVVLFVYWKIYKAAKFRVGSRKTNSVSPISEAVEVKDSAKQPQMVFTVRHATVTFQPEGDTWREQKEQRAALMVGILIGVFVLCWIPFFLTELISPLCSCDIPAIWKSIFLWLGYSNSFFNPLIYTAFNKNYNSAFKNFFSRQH

Molecules are shown by their SMILES. The entries are a selection whose mix differs from that of the whole data set. Active and inactive are the calls of the source. Rule as the data show it: active = activation mostly above about 9.5% (no sharp cut-off); inactive = mostly below about 7.6%.

For this assay, the target named is 5-hydroxytryptamine receptor 5A (Homo sapiens) (UniProt P47898). Briefly: HTR5A agonists in luminescence cell assay, primary screen, counter-screen for OPRM1-OPRD1 heterodimer agonist project, full-deck HTS (AID 504692).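 Also: 0% = cells with vehicle only and 100% = reference agonist.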 As to conditions: cell-based, at 9.3 µM, active compounds read high. Background: The purpose of a counterscreen is to sort out artefacts and off-target activity.
Consider `Cc1ccc(OCCNC(=O)Cn2cnc3c(=O)n(C)c(=O)n(C)c32)cc1C`, for which the activation was inactive: -2.25%. Then `O=C(NC1CCS(=O)(=O)C1)NP(=S)(Oc1ccccc1)Oc1ccccc1` (centres undefined), with inactive: 0.7%; and `COc1cccc(NC(=O)[C@H](C)NC(=O)N2CCn3c2nc2ccccc23)c1`, with inactive: -1.83%; and `CCNC(=S)/N=C(\N)N[N+](=O)[O-]`, with inactive: -5.47%. Then `CCSc1nc2ccccc2n1CC(=O)N1CCOCC1`, with inactive: 2.33%; and `COc1cc(/C=N/NC(=O)Cn2cnc3c2c(=O)n(C)c(=O)n3C)ccc1O`, with inactive: -1.61%.

For the compound `Cc1nc2ccccc2n1C1CC(=O)N(Cc2ccccc2)C1=O` (centres undefined), the activation is inactive: 0.35%. For `CC(c1ccccc1)N1CCn2c(nc3cc(NS(C)(=O)=O)ccc32)C1` (centres undefined) the value was inactive: 6.25%. For `S=C(Nc1ccccc1)N1CCn2c1nc1ccccc12` the value was inactive: -0.16%. For `c1ccc(CN2CCN(CCN3CCn4c3nc3ccccc34)CC2)cc1` the value was inactive: -2.88%; for `O=C(Cn1c(-c2ccco2)nc2ccccc21)N1CCCCC1`, inactive: 2.67%; for `O=C(C1CCCN1S(=O)(=O)c1cccc2cccnc12)N1CCn2c1nc1ccccc12` (centres undefined), inactive: 4.49%. With `Cn1c(=O)c2ncn(CC(=O)Nc3ccc(N4CCOCC4)cc3)c2n(C)c1=O`, the activation was inactive: 4.34%. For `CCOC(=O)C1CCCN(C(=O)Cn2cnc3c2c(=O)n(C)c(=O)n3C)C1` (centres undefined) the value was inactive: -2.84%. For `Cc1ccc(Cn2c(=O)c3c(nc4n3CCN4Cc3ccco3)n(C)c2=O)cc1` the value was inactive: 0.12%; for `CC(C)(C)C(=O)N1CCn2c1nc1ccccc12`, inactive: -2.78%. Then `Cc1nc2cc(C(F)(F)F)ccc2n1CCNc1nc(-c2cc(Cl)c(N)c(Cl)c2)cs1`, with inactive: 2.13%; and `Cn1c(=O)c2c(ncn2CC(=O)N2CCN(C(=O)c3ccco3)CC2)n(C)c1=O`, with inactive: 0.12%; and `O=S(=O)(c1ccccc1)N1CCn2c(nc3ccccc32)C1`, with inactive: -3.29%.

Take `CCOC(=O)CSc1nc2ccccc2n1CC(=O)N(C(C)C)C(C)C`: the activation was inactive: -1.58%. Then `Cn1c(=O)c2c(ncn2CCNC2=NCCCCC2)n(C)c1=O`, with inactive: -0.54%. Then `COc1ccc(NS(=O)(=O)c2cc(NC(=O)Cn3cnc4c3c(=O)n(C)c(=O)n4C)ccc2C)cc1`, with inactive: -2.79%; and `O=C1NCN(c2ccccc2)C12CCNCC2`, with inactive: 2.25%; and `O=C(Cn1cnc2c(NCc3ccccc3)ncnc21)NCc1ccc2[nH]ccc2c1`, with inactive: 0.42%. For `O=C(c1ccc(Cl)cc1)N1CCn2c1nc1ccccc12` the value was inactive: 1.32%; for `O=P1(N(CCCl)CCCl)OCCC2CCCCN21` (centres undefined), inactive: -2.13%. As for `CC(C)NC(=O)Cn1c(SCC(=O)N2c3ccccc3CC2C)nc2ccccc21` (centres undefined), the activation was inactive: 0.72%. For `Cc1ccc(CN2C(=O)c3ccccc3NC23CCN(Cc2ccccc2)CC3)cc1` the value was inactive: -4.27%; for `CC(=O)NC(C)c1nc2ccccc2n1CC(=O)N1C(C)CCCC1C` (centres undefined), inactive: 3.82%. Then `CCCS(=O)(=O)N1CCn2c(nc3ccccc32)C1`, with inactive: 1.55%; and `CCC(=O)Nc1cccc(C(=O)/C=C/c2cc(Br)ccc2OC)c1`, with inactive: -4.89%; and `O=C(Cn1c(-c2cscn2)nc2ccccc21)Nc1ccccc1F`, with inactive: 7.71%. For `O=C(Nc1nc2ccccc2n1CCN1CCCCC1)c1ccco1` the value was inactive: 5.05%; for `O=S(=O)(c1ccccc1)c1nnn2c1nc(NC1CCN(Cc3ccccc3)CC1)c1ccccc12`, inactive: 1.95%; for `O=C(Cn1cnc2c(NCc3ccccc3)ncnc21)N1CCN(c2ccccn2)CC1`, inactive: -1.47%. Take `COc1ccccc1C(=O)Nc1ccc2c(c1)nc1n2CCN(C2CCCCC2)C1`: the activation was inactive: 6.1%.

As for `CC(NC(=O)CCNC(=O)N1CCn2c1nc1ccccc12)c1ccccc1` (centres undefined), the activation was inactive: -3.59%. For `CC1Cc2ccccc2N1C(=O)Cn1cnc2c1c(=O)n(C)c(=O)n2C` (centres undefined) the value was inactive: 2.44%; for `O=C(Nc1nc2ccccc2n1CCN1CCCCC1)C1CCCCC1`, inactive: -5.69%; for `Cn1c(=O)c2c(nc(CN3CCN(C(=O)c4ccco4)CC3)n2CC(N)=O)n(C)c1=O`, inactive: 1.07%. With `Cc1ccc(-c2csc(NCCn3c(C(F)(F)F)nc4ccccc43)n2)cc1`, the activation is inactive: -0.03%. For `CC(O)CNc1nc2ccccc2n1CC(=O)NCCc1ccc(Cl)cc1` (centres undefined) the value was inactive: 2.87%; for `CN(CC(=O)Nc1cccc(F)c1)C(=O)Cn1cnc2c1c(=O)n(C)c(=O)n2C`, inactive: -2.56%; for `CC(C)NC(=O)Cn1c(SCC(=O)N2CCCCCC2)nc2ccccc21`, inactive: -2.41%. Then `COc1ccc(CCNC(=O)Cn2c(-c3nonc3N)nc3ccccc32)cc1OC`, with inactive: 2.2%; and `O=C(Cn1c(COc2ccccc2)nc2ccccc21)Nc1cc(Cl)ccc1Cl`, with inactive: 4.48%. For `COc1ccc(CC(=O)N2CCC(Nc3nc4ccccc4n3Cc3ccc(F)cc3)CC2)cc1` the value was inactive: 2.45%; for `Cc1ccccc1NC(=O)Cn1cnc2c1c(=O)n(C)c(=O)n2C`, inactive: 3.73%.

In the case of `O=C(NCCn1c(C(F)(F)F)nc2ccccc21)[C@H]1CCCN1c1nc(CN2CCCCC2)cs1`, the activation was inactive: 8.98%.

For `COc1ccc(N2C(=O)CC(n3c(CCCCO)nc4ccccc43)C2=O)cc1` (centres undefined), the activation was inactive: 2.62%. Turning to `O=C(Cn1c(-c2cncs2)nc2ccccc21)NCc1ccccc1`, the activation is inactive: -1.24%. For `Cn1c(=O)c2c(ncn2CC(N)=O)n(C)c1=O` the value was inactive: -0.57%. Turning to `CC1CN(Cc2nc3c(c(=O)[nH]c(=O)n3C)n2CCN2CCOCC2)CC(C)O1` (centres undefined), the activation was inactive: 2.61%. For `O=C(CCC(=O)Nc1ccccc1)N/N=C/C=C/c1ccccc1`, the activation is inactive: 6.09%. Then `O=C(Nc1ccc2c(c1)nc1n2CCN(Cc2ccccc2)C1)c1cccs1`, with inactive: 0.79%; and `CC(=O)c1ccc(NC(=O)C2CC(=O)Nc3nc4ccccc4n32)cc1` (centres undefined), with inactive: 1.1%; and `Nc1nonc1-c1nc2ccccc2n1CC(=O)Nc1ccccc1`, with inactive: 0.98%.

For `CCC(=O)Nc1nnc(/C=C/c2ccc(OC)cc2)s1`, the activation is inactive: -0.55%.

With `CCN(CC)CCNC(=O)Cn1c(-c2ccccn2)nc2ccccc21`, the activation was inactive: -1.23%.
